The target of assay [1] is Cathepsin D (purified human CatD, Enzo Life Sciences) (human) (UniProt P07339).
Assay [2] shares this target. Briefly: SPR; Biacore S51, CM5 chip; CatD amine-coupled to the chip; Aβ peptides flowed in 50 mM Na-citrate, 200 mM NaCl, 1 mM EDTA, 2 mM DTT, 0.005% Tween-20, pH 4.5; triplicate, 3-fold dilution series beginning at […]; simple 1:1 interaction model. On the technique in general: Surface plasmon resonance follows binding to a sensor surface in real time, without labels.

Chains of the proteins cited; added tags and fusions are not shown. Lines headed by an entry give the natural chain unless they say otherwise; changes in a name come on top.
UniProt P07339: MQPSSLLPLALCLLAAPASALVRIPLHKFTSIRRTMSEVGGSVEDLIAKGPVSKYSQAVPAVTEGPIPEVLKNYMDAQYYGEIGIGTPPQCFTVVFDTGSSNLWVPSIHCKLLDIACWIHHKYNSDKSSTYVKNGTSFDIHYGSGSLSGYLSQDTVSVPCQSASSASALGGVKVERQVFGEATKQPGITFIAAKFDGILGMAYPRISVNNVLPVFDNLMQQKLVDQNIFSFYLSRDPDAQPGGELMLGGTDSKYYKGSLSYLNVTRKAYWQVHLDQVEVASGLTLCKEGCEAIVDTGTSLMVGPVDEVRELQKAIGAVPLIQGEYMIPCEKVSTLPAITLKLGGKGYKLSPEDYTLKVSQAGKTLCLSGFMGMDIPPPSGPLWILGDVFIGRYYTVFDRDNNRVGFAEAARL

The target is the same in assay [3]. This is another data set of the same source.
Assay [4] has the same target. This is another data set of the same source.

The term Kd denotes the constant that tells how readily two partners part at equilibrium.

“α-secretase-derived p3 fragment of APP ending at position 42 (Aβ(17–42)) (peptide)” returned an inhibition of CatD activity (fluorogenic substrate) by 1 μM peptide in assay [1] above 90%.
“human amyloid β-protein 1-40 (monomeric human Aβ40) (from UniProt P05067 672-711) (peptide)” returned a Kd in assay [2] above 333 nM. Besides, the KM of degradation of monomeric Aβ40 by CatD at pH 4.0, Aβ quantified by ELISA in assay [3] was 1.51 μM.
In assay [1], “human amyloid β-protein 1-42 (monomeric human Aβ42) (from UniProt P05067 672-713) (peptide)” came in with an inhibition of CatD activity (fluorogenic substrate) by 1 μM peptide of 90%. This substance had an IC50 of inhibition of CatD activity (nominal ~ 1 nM CatD), fluorescence dequenching assay with a fluorogenic substrate in assay [4] of 0.96 nM.
